1 compound from publication PMC3560935 (Anesthesiology, 2011) can be followed below.

The chains behind the UniProt entries cited, without tags or fusion partners.
UniProt P41143, whole entry: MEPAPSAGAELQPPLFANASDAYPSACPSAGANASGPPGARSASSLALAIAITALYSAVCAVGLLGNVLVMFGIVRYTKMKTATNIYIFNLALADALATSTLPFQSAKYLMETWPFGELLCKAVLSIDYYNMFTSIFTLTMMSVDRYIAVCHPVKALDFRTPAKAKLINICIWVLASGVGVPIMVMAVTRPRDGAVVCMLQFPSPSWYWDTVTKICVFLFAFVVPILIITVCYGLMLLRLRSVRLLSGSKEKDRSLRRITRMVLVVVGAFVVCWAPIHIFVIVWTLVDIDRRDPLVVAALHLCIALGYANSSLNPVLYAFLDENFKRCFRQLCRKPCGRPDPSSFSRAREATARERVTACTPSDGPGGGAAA

The target in the test is human delta opioid receptor (Homo sapiens, UniProt P41143). It counts as binding.

Regarding `CO[C@]12CC[C@@]3(C[C@@H]1[C@](C)(O)C(C)(C)C)[C@H]1Cc4ccc(O[C@@H]5O[C@H](C(=O)O)[C@@H](O)[C@H](O)[C@H]5O)c5c4[C@@]3(CCN1CC1CC1)[C@H]2O5` [Buprenorphine-3-glucuronide, buprenorphine-3-glucuronide], the “inhibition of 3H-diprenorphine delta receptor binding (in words)” value is “Ki in the nanomolar range”. The Ki (read-out: apparent Ki, Delta) was found to be 270 ± 0.4 nM.
